Reference: patent US12492224B2, “Bicyclic peptide ligands specific for PD-L1” (BicycleTx Limited, priority 2018, dated 2025)

Chains of the proteins cited; added tags and fusions are not shown. Residues count along the entry.
UniProt Q9NZQ7, 19-290: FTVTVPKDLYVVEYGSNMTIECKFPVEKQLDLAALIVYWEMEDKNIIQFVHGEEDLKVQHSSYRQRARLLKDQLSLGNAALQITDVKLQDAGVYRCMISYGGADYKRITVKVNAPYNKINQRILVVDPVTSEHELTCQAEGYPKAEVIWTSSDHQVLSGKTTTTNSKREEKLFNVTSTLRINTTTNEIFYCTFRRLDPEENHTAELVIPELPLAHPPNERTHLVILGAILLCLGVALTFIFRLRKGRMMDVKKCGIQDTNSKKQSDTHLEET
UniProt Q9EP73, 19-290: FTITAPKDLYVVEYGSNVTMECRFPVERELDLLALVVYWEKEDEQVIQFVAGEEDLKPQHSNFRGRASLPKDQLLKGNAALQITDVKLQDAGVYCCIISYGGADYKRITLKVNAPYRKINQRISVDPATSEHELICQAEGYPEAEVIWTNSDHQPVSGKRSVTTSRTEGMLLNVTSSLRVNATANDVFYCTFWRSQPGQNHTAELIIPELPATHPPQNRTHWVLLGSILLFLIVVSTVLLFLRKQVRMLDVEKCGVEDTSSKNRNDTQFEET

Key:
human PD-L1 [1] = molecular target: T1, human PD-L1 (Homo sapiens, UniProt Q9NZQ7); experiment: PD-L1 Direct Binding Assay (fluorescence polarisation), human; settings: Human Direct Binding Assay, fluorescence polarisation; read-out: Kd
T1 construct: purchased Sino Biologicals or R&D systems
Procedure: (§1) Affinity of the peptides of the invention for human PD-L1 (Ki) was determined using a fluorescence polarisation assay, in accordance with the methods disclosed in WO2016/067035. Peptides of the invention with a fluorescent tag (either fluorescein, SIGMA or Alexa Fluor488™, Fisher Scientific) were diluted to 2.5 nM in PBS with 0.01% tween 20 or 50 mM HEPES with 100 mM NaCl and 0.01% tween pH 7.4 (both referred to as assay buffer). This was combined with a titration of protein in the same assay buffer as the peptide to give 1 nM peptide in a total volume of 25 μL in a black walled and bottomed low bind low volume 384 well plates, typically 5 μL assay buffer, 10 μL protein then 10 μL fluorescent peptide. One in two serial dilutions were used to give 12 different concentrations with top concentrations ranging from 500 nM for known high affinity binders to 10 μM for low affinity binders and selectivity assays. Measurements were conducted on a BMG PHERAstar FS equipped with an “FP 485 520 520” optic module which excites at 485 nm and detects parallel and perpendicular emission at 520 nm. The PHERAstar FS was set at 25° C. with 200 flashes per well and a positioning delay of 0.1 second, with each well measured at 5 to 10 minute intervals for 60 minutes. The gain used for analysis was determined for each tracer at the end of the 60 minutes where there was no protein in the well. Data was analysed using Systat Sigmaplot version 12.0. mP values were fit to a user defined quadratic equation to generate a Kd value: f=ymin+(ymax−ymin)/Lig*((x+Lig+Kd)/2−sqrt((((x+Lig+Kd)/2)^2)−(Lig*x))). “Lig” was a defined value of the concentration of tracer used.

human PD-L1 [2] = molecular target: T1, human PD-L1; experiment: PD-L1 Competition Binding Assay (fluorescence polarisation); settings: competition with FI-G-Sar5-ACPDPHNICHLWCA
Procedure: Peptides were diluted to an appropriate concentration in assay buffer as described in the direct binding assay with a maximum of 5% DMSO, then serially diluted 1 in 2. Five μL of diluted peptide was added to the plate followed by 10 μL of human PD-L1, then 10 μL fluorescent peptide added. Measurements were conducted as for the direct binding assay, however the gain was determined prior to the first measurement. Data analysis was in Systat Sigmaplot version 12.0 where the mP values were fit to a user defined cubic equation to generate a Ki value:
f=ymin+(ymax−ymin)/Lig*((Lig*((2*((Klig+Kcomp+Lig+Comp−Prot*c)^2−3*(Kcomp*(Lig−Prot*c)+Klig*(Comp−Prot*c)+Klig*Kcomp))^0.5*COS(ARCCOS((−2*(Klig+Kcomp+Lig+Comp−Prot*c)^3+9*(Klig+Kcomp+Lig+Comp−Prot*c)*(Kcomp*(Lig−Prot*c)+Klig*(Comp−Prot*c)+Klig*Kcomp)−27*(−1*Klig*Kcomp*Prot*c))/(2*((((Klig+Kcomp+Lig+Comp−Prot*c)^2−3*(Kcomp*(Lig−Prot*c)+Klig*(Comp−Prot*c)+Klig*Kcomp))^3)^0.5)))/3))−(Klig+Kcomp+Lig+Comp−Prot*c)))/((3*Klig)+((2*((Klig+Kcomp+Lig+Comp−Prot*c)^2−3*(Kcomp*(Lig−Prot*c)+Klig*(Comp−Prot*c)+Klig*Kcomp))^0.5*COS(ARCCOS((−2*(Klig+Kcomp+Lig+Comp−Prot*c)^3+9*(Klig+Kcomp+Lig+Comp−Prot*c)*(Kcomp*(Lig−Prot*c)+Klig*(Comp−Prot*c)+Klig*Kcomp)−27*(−1*Klig*Kcomp*Prot*c))/(2*((((Klig+Kcomp+Lig+Comp−Prot*c)^2−3*(Kcomp*(Lig−Prot*c)+Klig*(Comp−Prot*c)+Klig*Kcomp))^3)^0.5)))/3))−(Klig+Kcomp+Lig+Comp−Prot*c)))). “Lig”, “KLig” and “Prot” were all defined values relating to: fluorescent peptide concentration, the Kd of the fluorescent peptide and PD-L1 concentration respectively.

human PD-L1 [3] = molecular target: T1, human PD-L1; experiment: PD-L1 SPR Binding Assay (Biacore), human; settings: 25° C.
Procedure: (§2) The protein was desalted to remove uncoupled biotin using spin columns into PBS. For analysis of binding, a Biacore 3000 instrument was used utilizing a CM5 sensor chip (GE Healthcare). Streptavidin was immobilized on the chip using standard amine-coupling chemistry at 25° C. with HBS-N (10 mM HEPES, 0.15 M NaCl, pH 7.4) as the running buffer. The carboxymethyl dextran surface was activated with a 12 min injection of a 1:1 ratio of 0.4 M 1-ethyl-3-(3-dimethylaminopropyl) carbodiimide hydrochloride (EDC)/0.1 M N-hydroxy succinimide (NHS) at a flow rate of 10 μl/min. For capture of streptavidin, protein was diluted to 0.1 mg/ml in 10 mM sodium acetate (pH 4.5) and captured by injecting 70 μl onto the activated chip surface. Residual activated groups were blocked with a 7 min injection of 1 M ethanolamine (pH 8.5). Biotinylated PD-L1 stock was diluted 1:100 in HBS-N and captured on one flow cell at 5 μl/min to a level of 1000-1300 RU. Buffer was changed to PBS/0.05% Tween 20 and a dilution series of the peptides was prepared in this buffer with a final DMSO concentration of 0.5%. The top concentrations were 200 nM or 500 nM with 6 2-fold dilutions. The SPR analysis was run at 25° C. at a flow rate of Flow rate 50 μl/min with 60 seconds association and 400 seconds disassociation. Data were corrected for DMSO excluded volume effects. All data were double-referenced for blank injections and reference surface using standard processing procedures and data processing and kinetic fitting were performed using Scrubber software, version 2.0c (Biologic Software). Data were fitted using mass transport model allowing for mass transport effects where appropriate.

mouse PD-L1 [4] = molecular target: T2, mouse PD-L1 (Mus musculus, UniProt Q9EP73); experiment: PD-L1 Direct Binding Assay (fluorescence polarisation), mouse
Procedure: as §1

mouse PD-L1 [5] = molecular target: T2, mouse PD-L1; experiment: PD-L1 SPR Binding Assay (Biacore), mouse; settings: 25° C.
Procedure: as §2, with “Biacore experiments were performed to determine ka) (M^−1s^−1), kd (s^−1), KD (nM) values of monomeric peptides binding to human PD-L1 protein. […] The protein” for “The protein”, “2-fold dilutions. […]” for “2-fold dilutions. The SPR analysis was run at 25° C. at a flow rate of Flow rate 50 μl/min with 60 seconds association and 400 seconds disassociation. Data were corrected for DMSO excluded volume effects. All data were double-referenced for blank injections and reference surface using standard processing procedures and data processing and kinetic fitting were performed using Scrubber software, version 2.0c (Biologic Software). Data were fitted using mass transport model allowing for mass transport effects where appropriate.”

PD-1/PD-L1 interaction = molecular target: T3, PD-1/PD-L1 interaction (Homo sapiens, UniProt Q9NZQ7); experiment: PD-1/PD-L1 Blockade Bioassay (Jurkat PD-1 NFAT-luciferase / CHO-K1 PD-L1); type: cell-based; settings: 6 hours incubation, luciferase fold induction
T3 construct: host or cells: CHO-K1 (human PD-L1) and Jurkat (human PD-1, NFAT-luciferase)
Procedure: Effector Jurkat cells engineered to overexpress human PD-1 and express a luciferase gene under the NFAT response element were purchased from Promega. Target CHO-K1 cells which overexpress human PD-L1 and an engineered cell surface protein designed to activate the Jurkat's T cell receptor in an antigen-independent manner were also purchased from Promega. CHO-K1 cells were plated the day before the assay in Ham's F-12 Medium+10% FBS and were allowed to adhere to the plate. On the day of the assay, media was removed and Jurkat cells were plated with a dose response of test articles in RPMI1640 media with 1% FBS (80 μL total volume per well). […] After 6 hours of incubation at 37° C., 5% CO2, 80 μL of Bio-Glo reagent (Promega) was added to each well and allowed to equilibrate for 10 minutes at room temperature. Luminescence was read on the Clariostar plate reader (BMG LabTech). Fold induction was calculated by dividing the luminescence signal by the average of the background wells (wells with both cell lines and no test article). Data was graphed in Prism and fit to a 4-parameter logistic curve.

Substance	Kd (human PD-L1 [1]) [nM]	Ki (human PD-L1 [2]) [nM]	Kd (mouse PD-L1 [4]) [nM]	other results
ACSWSWLTMCQKLHLCA [BCY519]	29.6	29.6 ± 9.2	–	Kd (human PD-L1 [3]): 60.9 nM
ACSESWSAMCASLGLCA [BCY531]	311	118 ± 86.1	–	–
ACDPLCLSIRASLGLCA[Sar]6[KFI] [BCY7126]	–	–	943	–
[PYA][B-Ala][Sar]10C[HArg]DWCHWTFSHGHPC [BCY8938]	–	–	–	Kd (mouse PD-L1 [5]): 117 nM
ACRDWCHWTFSHGTPCA[Sar]6[KFI] [BCY7386]	–	–	879	–
ACDPLCLSIKRSLGLCA[Sar]6[KFI] [BCY7374]	–	–	51	–
ACSESWSNMCKSLGLCA [BCY532]	176	243	–	–
ACSAEWRNMCVQLDLCA [BCY528]	162	112 ± 37.2	–	Kd (human PD-L1 [3]): 291 nM
ACRDWCHWTFSHGHPCA[Sar]6[KFI] [BCY7387]	–	–	1180	–
ACRDWCHWTFDNGHPCA[Sar]6[KFI] [BCY7385]	–	–	58	–
ACSDNWLNMCVELGLCA [BCY530]	106	106 ± 89.3	–	–
ACSAEWRNMCVELNLCA [BCY538]	524	524	–	–
ACSTSWMNLCKQLNLCA [BCY521]	170	170	–	–
[Ac]SDKCSAGWLTMCKQLNLCPSH [BCY10467]	–	–	–	Kd (human PD-L1 [3]): 3.1 nM; EC50 (PD-1/PD-L1 interaction): 196 nM
[Ac]SDKCSAGWLTMCKQLNLCPSH-COOH [BCY10939]	–	–	–	Kd (human PD-L1 [3]): 3.39 nM; EC50 (PD-1/PD-L1 interaction): 211 nM
[Ac]SD[HArg]CS[Nle]GWLT[hPhe]CLKL[Aib]LCPSH [BCY10959]	–	–	–	Kd (human PD-L1 [3]): 5.54 nM; EC50 (PD-1/PD-L1 interaction): 120 nM
ACSASWSNMCVELGLCA [BCY529]	356	201 ± 211	–	Kd (human PD-L1 [3]): 442 nM
ACSPIWTNTCIQLGLCA [BCY522]	618	618	–	–
ACDPLCLSIKRGLGLCA[Sar]6[KFI] [BCY7377]	–	–	114	–
ACSESWRNMCVQLNLCA [BCY533]	19.2	19.2 ± 4.7	–	–
ACSSSWTNMCVQLGLCA [BCY537]	49.5	49.5 ± 59.9	–	–
ACSPEWTNMCVQLHLCA [BCY534]	65.8	65.8 ± 4.61	–	–
ACDPLCLSIKRQLGLCA[Sar]6[KFI] [BCY7375]	–	–	66	–
ACSTQWNNMCVQLGLCA [BCY535]	116	116 ± 39.9	–	–
ACDMRCIRIKQSLGMCA[Sar]6[KFI] [BCY7384]	–	–	932	–
ACDPLCLSIKRKLGLCA[Sar]6[KFI] [BCY7376]	–	–	73	–
ACSESWSNMCVSLGLCA [BCY527]	494	440 ± 126	–	Kd (human PD-L1 [3]): 933 nM
ACRDWCHWTFTHGHPCA[Sar]6[KFI] [BCY7388]	–	–	44	–
ACSPEWKNMCITLNLCA [BCY539]	116	116	–	–
ACRDWCHWTFTHSHPCA[Sar]6[KFI] [BCY7389]	–	–	132	–
